Assay results as given in patent US9035059B2, “Nitrogen-containing condensed heterocyclic compound” (TAISHO PHARMACEUTICAL CO., LTD., priority 2011, dated 2015).

Chains of the proteins cited; added tags and fusions are not shown.
UniProt Q3SYC2, whole entry: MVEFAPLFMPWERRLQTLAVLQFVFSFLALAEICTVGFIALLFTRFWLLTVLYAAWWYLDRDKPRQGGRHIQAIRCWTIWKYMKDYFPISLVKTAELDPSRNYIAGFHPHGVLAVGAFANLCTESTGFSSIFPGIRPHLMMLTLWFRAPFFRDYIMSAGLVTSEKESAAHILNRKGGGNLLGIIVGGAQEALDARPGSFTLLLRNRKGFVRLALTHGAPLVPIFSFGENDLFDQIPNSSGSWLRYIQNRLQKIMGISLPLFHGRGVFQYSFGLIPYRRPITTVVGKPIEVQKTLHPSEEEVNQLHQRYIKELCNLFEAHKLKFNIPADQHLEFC

What follows are compounds tested against MGAT2 (microsomal fraction of human small intestine) (Homo sapiens (Human), UniProt Q3SYC2) (assay: Test Example 2: Test of MGAT2 inhibitory action (microsomal fraction of human small intestine, 3H-labeled 2-monooleoyl glycerol)). Details: read-out: Activity Value [nM] (IC50, concentration at which 50% of the products 3H-labeled dioleoyl glycerol and trioleoyl glycerol was inhibited); microsomal fraction of human small intestine 5 μg/ml; 4 μM oleoyl-CoA, 1.25 μM 2-monooleoyl glycerol, 0.125 μM 3H-labeled 2-monooleoyl glycerol; room temperature 30 min; tested form: HCl.
Assay type: biochemical

IC50 [nM] | Structure (SMILES)
10 | CC(c1cnc(C(C)(C)C)s1)N1CCc2cc(S(=O)(=O)Nc3ccc(CCCC4CCCC4)cc3F)ccc2C1 (single isomer, unassigned) [24-5]
75 | CC(c1cnc(C(C)(C)C)s1)N1CCc2cc(S(=O)(=O)Nc3ccc(CCCC4CCCC4)cc3F)ccc2C1 (single isomer, unassigned) [24-6]

Structure (SMILES) | IC50 [nM]
CC(c1cnn(C)c1)N1CCc2cc(S(=O)(=O)Nc3ccc(CCCC4CCCC4)cc3F)ccc2C1 (single isomer, unassigned) | 159
